This passage reports Ki results from ChEMBL document CHEMBL1129342, “Structure-based design of novel HIV protease inhibitors: sulfonamide-containing 4-hydroxycoumarins and 4-hydroxy-2-pyrones as potent non-peptidic inhibitors” (J Med Chem, 1996).

This test addresses Human immunodeficiency virus type 1 protease (Human immunodeficiency virus 1, UniProt Q72874). The test is described as follows: Binding affinity against HIV-1 protease.
With `Cn1cnc(S(=O)(=O)Nc2cccc(C(c3c(O)cc(C(CC4CC4)CC4CC4)oc3=O)C3CC3)c2)c1` (racemic), the Ki turned out to be 1000 pM. Next, `Cn1cnc(S(=O)(=O)Nc2cccc(C(c3c(O)cc(C(CC4CC4)CC4CC4)oc3=O)C3CC3)c2)c1` (single isomer, unassigned; enantiomer 1): 740 pM; `Cn1cnc(S(=O)(=O)Nc2cccc(C(c3c(O)cc(C(CC4CC4)CC4CC4)oc3=O)C3CC3)c2)c1` (single isomer, unassigned; enantiomer 2): 840 pM; `Cn1cnc(S(=O)(=O)Nc2cccc(C(c3c(O)cc(C(CC4CC4)CC4CC4)oc3=O)C3CC3)c2)c1` (stereo in doubt): 1000 pM.
